The values that follow come from US12180508B2, “Method of preparing in vitro-matured human intestinal organoids and use thereof” (KOREA RESEARCH INSTITUTE OF BIOSCIENCE AND BIOTECHNOLOGY, priority 2018, dated 2024).

The subject of assay [1] is hIOs. As to the kind of experiment: Microarray gene expression profiling of hIOs versus hSI. Type of assay: cell-based, human. The protocol: Microarray experiments were conducted according to the manufacturer's instructions using a low RNA input linear amplification kit, cRNA cleanup module, and one-color (Cy3) Whole Human Genome Microarray 4X44K (Agilent. Technology, Santa Clara, CA) by a known method. Gene expression data were processed using GeneSpring software (Agilent). The data were normalized using global scale normalization. Differentially expressed genes were selected on the basis of a fold-change greater than 2.
Microarray data analysis was performed as described in Experimental Example 9. Hierarchical clustering and the heat map were generated using MeV v 4.9.0 software. Gene functions were annotated using GeneCard database (genecards.org). Other bioinformatic analyses were performed using IPA analysis software (Ingenuity systems, Redwood City, CA, USA), PANTHER (Protein ANalysis THrough Evolutionary Relationships, http://www.pantherdb.org) database, and DAVID Bioinformatics Resources 6.7 (david.abcc.ncifcrf.gov/). Differentially phosphorylated proteins were used for analysis and visualization of functional interaction networks. Core pathways in the network were further analyzed using Reactome (Reactome FI software, Version 5.0.0 beta, apps.cytoscape.org/apps/reactomefis). The functionally grouped gene ontology (GO)/pathway was analyzed using Cytoscape software platform (version 3.3.0, http://www.cytoscape.org/what_is_cytoscape.html) with ClueGO plug-in (Version 2.2.5, apps.cytoscape.org/apps/cluego).

Assay [2] concerns hIOs. As to the kind of experiment: qPCR of intestinal maturation markers in hIOs. Type of assay: cell-based, human. The conditions noted are these: co-cultured or IL-2-treated hIOs. The protocol: Total RNA was extracted from cells using an RNeasy Kit (Qiagen), and reverse-transcribed using a Superscript III cDNA synthesis kit (Invitrogen). qRT-PCR was performed by a method disclosed in a 7500 Fast Real-time PCR system (Applied Biosystems, Foster City, CA, USA) (Cho et al., Oncotarget 6, 23837-23844, 2015). All experiments were performed in triplicate, and CT value of each target gene was calculated using a software provided by the manufacturer. Nucleotide sequences of the used primers are as in Table 1.
Background: Quantitative PCR measures a nucleic acid by following its amplification.

A further assay relates to hPSC-derived hIOs. Kind of assay: Growth / size (surface area, budding) of hPSC-derived hIOs. Type of assay: cell-based, human. The conditions noted are these: IL-2 at 1 ng/ml to 4 ng/ml. The protocol: To assess the effect of interleukin 2 (hereinafter, referred to as IL-2) on hIOs, prepared rhIL-2 (R&D Systems) was added daily to hIO medium at a concentration of 1 ng/ml (approximately 13 U/ml). Further, to inhibit IL-2 signaling, hIOs were treated with 1 μg/ml of anti-IL-2Rα monoclonal antibody (R&D Systems). To block IL-2 downstream signal transduction, a mTOR inhibitor Rapamycin (10 nM, Sigma-Aldrich), a STAT3 inhibitor S31-201 (10 μM, Sigma-Aldrich), or Stattic (1 μM, Sigma-Aldrich) was added. To estimate the size of hIOs, surface areas of horizontal cross-sections of hIOs were measured.

The test system of assay [3] is hIOs. As to the kind of experiment: GIP hormone secretion assay (ELISA) in hIO culture supernatant. In kind it is cell-based, human. The conditions noted are these: co-cultured or IL-2-treated hIOs, 48 hr supernatant. The protocol: Secretion of gastric inhibitory polypeptide (GIP) hormone expressed by enteroendocrine cells was examined to examine functionality of mature enteroendocrine cells. First, 15 organoids under different conditions were placed on culture plates, and washed with PBS five times, and hIO culture medium was added, followed by incubation for 48 hr at 37° C. Thereafter, the supernatant was harvested, and quantity of GIP in the culture was measured using a total GIP ELISA kit (Merckmillopore). Then, gDNA of the total amount of hIOs used in the experiment was extracted using a DNeasy kit (Qiagen), and the quantity of GIP hormone relative to DNA was calculated and schematized.
Background: ELISA stands for enzyme-linked immunosorbent assay.

Another assay concerns STAT3 (Y705). Kind of assay: Human phospho-kinase array of IL-2-treated hIOs. In kind it is cell-based. The conditions noted are these: hIOs treated with 1 ng/ml rhIL-2 vs non-treated hIOs. The protocol: Protein phosphorylation was quantified using a Proteome Profiler Human Phospho-Kinase Array Kit (ARY003, R&D Systems) according to the manufacturer's instructions and a known method (Human molecular genetics 23, 1802-1816 (2014)). Protein extracts were prepared from hIOs which were co-cultured with human T lymphocytes and treated with 1 ng/ml rhIL-2. Non-treated hIOs were used as a control group. The phospho-kinase array membranes were blocked, incubated with 200 μg of total protein from hIOs overnight at 4° C., and then incubated with cocktails of biotinylated detection antibodies for 2 hr at room temperature. Signal was detected with an ECL Plus Western Blotting Detection System (GE Healthcare, Buckinghamshire, UK), and phosphorylated kinase levels were quantified by densitometry with Image Gauge software (Fuji Photo Film GMBH).

On to “IL-2: recombinant human interleukin 2 (R&D Systems) added daily to hIO medium”, for which the “share of 40 enzymes and transporters upregulated” value in the assay on hIOs [1] (IL-2-treated hIOs compared with control hIOs) amounted to 62.5 S. The “number of 40 enzymes and transporters upregulated” value with hIOs [1] (IL-2-treated hIOs compared with control hIOs, at least 2-fold) turned out to be 25. Further, in the assay with hIOs [1] (IL-2-treated hIOs, two-fold cut-off), the “genes shifted towards the profile of hSI” value is listed as 49.8. Further, the “expression levels of DEFA5, DEFA6, LYZ, DPP4 and LCT” value in the assay on hIOs [2] was “upregulated”. Further, the “size of hIO” value in the assay on hPSC-derived hIOs is recorded as “significantly increased”. Besides, in the assay on hIOs [3], the “amount of secreted GIP, increase compared with the control” value is “about 45 fold”. Moreover, the “phosphorylation of STAT3 (Y705), increase compared with the control” value in the assay on STAT3 (Y705) worked out at 3.3 fold.
